# Measured values from ChEMBL document CHEMBL1134376, “Structure-activity relationship studies of 4-[2-(diphenylmethoxy)ethyl]-1-benzylpiperidine derivatives and their N-analogues: evaluation of O-and N-analogues and their binding to monoamine transporters” (J Med Chem, 2001).
# Amino acid sequences for entries named in this document (tags omitted).
# UniProt Q9WTR4, whole entry: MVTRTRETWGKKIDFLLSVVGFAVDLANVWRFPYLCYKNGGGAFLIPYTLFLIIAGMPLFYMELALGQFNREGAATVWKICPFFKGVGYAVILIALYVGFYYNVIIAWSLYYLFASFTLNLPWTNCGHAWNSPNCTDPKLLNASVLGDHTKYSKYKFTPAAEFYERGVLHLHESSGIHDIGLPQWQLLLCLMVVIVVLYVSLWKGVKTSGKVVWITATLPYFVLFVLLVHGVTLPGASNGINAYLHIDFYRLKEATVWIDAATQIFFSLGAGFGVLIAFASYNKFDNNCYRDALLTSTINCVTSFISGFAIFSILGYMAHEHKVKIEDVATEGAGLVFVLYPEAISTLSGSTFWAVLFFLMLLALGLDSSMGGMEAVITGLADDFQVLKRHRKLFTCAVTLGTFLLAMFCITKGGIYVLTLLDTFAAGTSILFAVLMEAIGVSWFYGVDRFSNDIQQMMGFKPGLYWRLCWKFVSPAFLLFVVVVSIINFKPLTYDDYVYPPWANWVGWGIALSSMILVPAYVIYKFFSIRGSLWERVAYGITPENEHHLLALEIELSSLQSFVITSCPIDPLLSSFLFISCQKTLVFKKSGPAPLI
# How the values were obtained:
# [1] = target: Sodium-dependent dopamine transporter (Rattus norvegicus) (UniProt P23977); assay: Ratio of ([3H]-DA uptake) / [3H]WIN-35428 binding was determined in […]
# [2] = target: Norepinephrine transporter (Rattus norvegicus, UniProt Q9WTR4); assay: Affinity at norepinephrine transporter (NET) in rat striatum, using [3H]- nisoxatine as radioligand; type: tissue-based
SMILES,Ratio [1],IC50 [2] [µM]
N#Cc1ccc(CN2CCC(CCOC(c3ccccc3)c3ccccc3)CC2)cc1,1.23,
COC(=O)[C@H]1[C@@H](OC(=O)c2ccccc2)C[C@@H]2CC[C@H]1N2C [COCAINE],,3.53
